Laboratory results as given in published antibiotic growth screens (doi:10.1038/s41589-023-01349-8).
The other results are listed elsewhere or left out.

The compounds below were run on A. baumannii ATCC 17978 (assay: relative growth (fraction of control); higher = less inhibition). Details: 50 µM.

Compound | relative growth
CC[C@@H](C)NC=C1C(=O)NC(=O)NC1=O | 0.745
C[C@]12CC[C@](C)(O1)[C@H](C(=O)O)[C@@H]2C(=O)O | 0.997
C[C@]12CCC(=O)C=C1C=CC1C2CC[C@@]2(C)C1CC[C@@]2(O)CCC(=O)[O-].[K+] (some centres not stated) | 0.934
Cl.OC1CCCCC1N1CCC(c2ccccc2)CC1 (configuration not stated) | 1.02
O.O=P1(N(CCCl)CCCl)NCCCO1 (configuration not stated) | 1.14
O=c1c(O)c(-c2ccc(O)c(O)c2)oc2c(O)c(O)cc(O)c12 | 0.948
O=c1cccc2n1C[C@H]1CNC[C@H]2C1 | 1.03
CNCC(O)c1ccc(O)cc1.CNCC(O)c1ccc(O)cc1.O=C(O)C(O)C(O)C(=O)O (configuration not stated) | 1.08
COC(=O)[C@@H](N)CCCNC(N)=N[N+](=O)[O-] | 0.897
CNC(=O)Oc1ccc2c(c1)[C@]1(C)CCN(C)[C@@H]1N2C.O=S(=O)(O)O | 1.17
CNCC(O)c1ccc(O)cc1 (configuration not stated) | 1.28
C#CCN(C)C(C)Cc1ccccc1.Cl (configuration not stated) | 0.873
CN1CCCCC1c1ccc(-c2cccnc2)nc1.Cl (configuration not stated) | 1.07
CC(C)[C@@H]1NC[C@@H]2CCCN2C1=O | 1.08
C/C=C(\C)C(=O)O[C@H]1C[C@@H](OC(C)=O)[C@@]2(C(=O)OC)CO[C@@H]3C2[C@]12CO[C@](O)(C(=O)OC)[C@H]2[C@](C)(C12O[C@@]1(C)[C@H]1C[C@@H]2OC2OC=C[C@@]21O)[C@@H]3O (some centres not stated) | 0.89
C=C/C=C\CC1=C(C)[C@@H](OC(=O)[C@@H]2[C@@H](C=C(C)C)C2(C)C)CC1=O | 1.28
CN(C)[C@@H](CN)c1cccc(C(F)(F)F)c1 | 1.06
C/C=C(/C)C(=O)O[C@H]1CC[C@@]2(C)[C@@H]3CC[C@H]4[C@]5(O)C[C@H](O)[C@@]6(O)[C@@H](CN7C[C@@H](C)CC[C@H]7[C@@]6(C)O)[C@]5(O)C[C@@]42O[C@]13O.Cl | 1.08
O=C(O)C[C@H]1CC[C@@H]2NC[C@H](O)COC[C@H]2O1 | 0.931
CCOP(=S)(OCC)Oc1cc(C)nc(C(C)C)n1 | 1.07
CCCN1C[C@H](CSC)C[C@@H]2c3cccc4[nH]cc(c34)CC21.CS(=O)(=O)O (some centres not stated) | 1.29
CN1CCN(c2nc(=O)c3c([nH]2)CCCC3)CC1 | 0.843
CC(NC(C)(C)C)C(=O)c1cccc(Cl)c1.Cl (configuration not stated) | 1.04
CNC(C)C(O)c1ccccc1.Cl (configuration not stated) | 1.18
COc1cc2c(cc1C=O)OCO2 | 0.973
O=C(NC(=O)c1ccccc1Cl)Nc1ccc(OC(F)(F)F)cc1 | 0.902

Compound | relative growth
Cc1ccc(-n2nccn2)c(C(=O)N2CCN(c3nc4cc(Cl)ccc4o3)CC[C@H]2C)c1 | 1.04
Cl.c1ccc2c(c1)OCC(C1=NCCN1)O2 (configuration not stated) | 1.19
CCN(CC)CCOC(=O)C(O)(c1ccccc1)c1ccccc1.Cl | 0.97
N[C@H]1C[C@@H]1c1ccccc1 | 0.995
COP(=S)(OC)Oc1ccc(Sc2ccc(OP(=S)(OC)OC)cc2)cc1 | 1.2
CCOP(=S)(OCC)Oc1nc(Cl)c(Cl)cc1Cl | 1.06
O=c1[n-]c(=O)n(Cl)c(=O)n1Cl.[Na+] | 1.07
CO/C1=C\C(C)=C\[C@@H](C)[C@@H](O)[C@@H](C)C/C(C)=C/C=C/[C@H](OC)[C@@H]([C@@H](C)[C@@H](O)[C@H](C)C(=O)/C=C/[C@H](C)[C@H](O)C(C)C)OC1=O | 1.16
NC(=O)CS(=O)C(c1ccccc1)c1ccccc1 (configuration not stated) | 1.12
c1ccc2c(c1)sc1ccccc12 | 1.35
CC(C)CC1C(=O)N2CCC[C@H]2C2(O)O[C@](NC(=O)C3C=C4c5cccc6[nH]c(Br)c(c56)C[C@H]4N(C)C3)(C(C)C)C(=O)N12.CS(=O)(=O)O (some centres not stated) | 1.04
CC(C)(CN)CNc1ccc([N+](=O)[O-])c2cccnc12 | 0.955
CC[C@H]1CN2CCc3cc(OC)c(OC)cc3C2C[C@@H]1CC1NCCc2cc(OC)c(OC)cc21.Cl.Cl (some centres not stated) | 0.884
CN1C(=O)CCS(=O)(=O)C1c1ccc(Cl)cc1 (configuration not stated) | 1.21
O=C(NC(O)C(Cl)(Cl)Cl)NC(O)C(Cl)(Cl)Cl (configuration not stated) | 0.927
CC(=O)NC1CCSC1=O (configuration not stated) | 0.921
O=C(O)Cc1cnc[nH]1 | 0.981
C[C@]12CCC3c4ccc(OC(=O)N(CCCl)CCCl)cc4CCC3C1CC[C@@H]2O (some centres not stated) | 1.15
[N-]=[N+]=NCc1ccccc1C[C@]1(C(=O)NCCN2CCOCC2)N=C(c2ccc(OCCCO)cc2)O[C@H]1c1ccccc1N=[N+]=[N-] | 1.05
CNC(=O)Oc1ccccc1OC(C)C | 1.08
COC(=O)NC(=S)Nc1ccccc1NC(=S)NC(=O)OC | 0.962
CCOP(=S)(OCC)Oc1ccc2c(C)c(Cl)c(=O)oc2c1 | 0.933
CO[C@@H]1C=C[C@@H]2[C@H]1N2CCCO (some centres not stated) | 0.926
[N-]=[N+]=Nc1ccccc1C[C@@]1(C(=O)NCc2ccccc2)N=C(c2ccc(OCCCO)cc2)O[C@@H]1c1ccccc1N=[N+]=[N-] | 1.2
CC(CCc1ccccc1)NC(C)C(O)c1ccc(O)cc1.Cl (configuration not stated) | 0.939
CC(=O)O[C@H]1C(=O)[C@@]2(C)C([C@H](OC(=O)c3ccccc3)[C@]3(O)C[C@H](O)C(C)=C1C3(C)C)[C@]1(OC(C)=O)CO[C@@H]1C[C@@H]2O (some centres not stated) | 0.913
